Test: Inhibition of the Fe2+ induced radical degradation of hyaluronic acid (viscosity drop)
Settings: concentration used 319 mg/l; hyaluronic acid 10 g/l, Fe2+ 620 ppm
Experimental: The chelating microspheres prepared according to I2 are used to evaluate their capacity, via the trapping of ferrous iron Fe2+, to inhibit the radical degradation of hyaluronic acid, glycosarinoglycan implied in the moisturisation of the human dermis, which is therefore a particularly important target to protect in cosmetic and dermo-pharmaceutical applications.
A 10 g/l solution of hyaluronic acid of high molecular weight (>1,000,000g/mol or Daltons) is prepared in demineralised water. To this solution is added an amount of Fe2+ of 620 ppm.
Other chelating agents which are conventionally used in cosmetics were used and compared to the chelating microspheres, for their capacity to reduce the radical degradation of hyaluronic acid. Indices of protection, expressed in % of protection, are calculated by carrying out a ratio of the drop in viscosity observed by the presence of iron Fe2+ (620 ppm) in the presence of the chelating agent studied, and the drop in viscosity observed with and without iron Fe2+.

With Ferritin the “Index of protection (%)” value was 0%.

— patent US6132750A, “Particles of cross-linked proteins and polysaccharides with hydroxamic groups for chelating metals and their uses notably in cosmetics” (Coletica, priority 1998, dated 2000)
